Measured values reported in paper PMC12325899 (Scientific Reports, 2025).

Chains of the proteins cited; added tags and fusions are not shown. Lines headed by an entry give the natural chain unless they say otherwise; changes in a name come on top.
UniProt Q9UNQ0: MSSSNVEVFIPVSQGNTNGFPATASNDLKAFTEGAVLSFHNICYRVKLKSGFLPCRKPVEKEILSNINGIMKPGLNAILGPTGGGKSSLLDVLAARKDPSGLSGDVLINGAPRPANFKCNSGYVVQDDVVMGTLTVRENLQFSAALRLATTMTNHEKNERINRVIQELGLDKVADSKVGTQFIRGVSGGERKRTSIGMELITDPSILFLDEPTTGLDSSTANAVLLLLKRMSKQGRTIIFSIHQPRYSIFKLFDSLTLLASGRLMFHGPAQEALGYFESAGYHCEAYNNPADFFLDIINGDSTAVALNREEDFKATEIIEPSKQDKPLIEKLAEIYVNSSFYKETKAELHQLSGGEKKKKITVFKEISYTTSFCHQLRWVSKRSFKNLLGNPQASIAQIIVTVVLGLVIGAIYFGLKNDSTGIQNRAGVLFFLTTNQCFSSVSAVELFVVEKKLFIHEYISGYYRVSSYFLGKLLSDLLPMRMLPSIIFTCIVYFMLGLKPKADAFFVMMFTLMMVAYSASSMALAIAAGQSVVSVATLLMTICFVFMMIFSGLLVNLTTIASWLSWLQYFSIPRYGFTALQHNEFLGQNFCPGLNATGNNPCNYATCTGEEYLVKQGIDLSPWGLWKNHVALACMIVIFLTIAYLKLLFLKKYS

Target: BCRP (Homo sapiens, UniProt Q9UNQ0)
Test: BCRP inhibition, prazosin accumulation assay in MDCKII-BCRP cells
Details: novobiocin 5 µM, prazosin 5 µM

**Q.** How did the “prazosin accumulation in MDCKII-BCRP with positive control inhibitor” value turn out when `CO[C@@H]1[C@@H](OC(N)=O)[C@@H](O)[C@H](Oc2ccc3c(O)c(NC(=O)c4ccc(O)c(CC=C(C)C)c4)c(=O)oc3c2C)OC1(C)C` [Novobiocin, reference compound] was run?
**A.** The value was “restored prazosin accumulation to levels similar to those observed in MDCKII-mock cells”.
